Sequences and labels used below:
B1: Tumor necrosis factor receptor superfamily member 5 (Homo sapiens), P25942 (parent)
chain: MVRLPLQCVLWGCLLTAVHPEPPTACREKQYLINSQCCSLCQPGQKLVSDCTEFTETECLPCGESEFLDTWNRETHCHQHKYCDPNLGLRVQQKGTSETDTICTCEEGWHCTSEACESCVLHRSCSPGFGVKQIATGVSDTICEPCPVGFFSNVSSAFEKCHPWTSCETKDLVVQQAGTNKTDVVCGPQDRLRALVVIPIIFGILFAILLVLVFIKKVAKKPTNKAPHPKQEPQEINFPDDLPGSNTAAPVQETLHGCQPVTQEDGKESRISVQERQ
partner: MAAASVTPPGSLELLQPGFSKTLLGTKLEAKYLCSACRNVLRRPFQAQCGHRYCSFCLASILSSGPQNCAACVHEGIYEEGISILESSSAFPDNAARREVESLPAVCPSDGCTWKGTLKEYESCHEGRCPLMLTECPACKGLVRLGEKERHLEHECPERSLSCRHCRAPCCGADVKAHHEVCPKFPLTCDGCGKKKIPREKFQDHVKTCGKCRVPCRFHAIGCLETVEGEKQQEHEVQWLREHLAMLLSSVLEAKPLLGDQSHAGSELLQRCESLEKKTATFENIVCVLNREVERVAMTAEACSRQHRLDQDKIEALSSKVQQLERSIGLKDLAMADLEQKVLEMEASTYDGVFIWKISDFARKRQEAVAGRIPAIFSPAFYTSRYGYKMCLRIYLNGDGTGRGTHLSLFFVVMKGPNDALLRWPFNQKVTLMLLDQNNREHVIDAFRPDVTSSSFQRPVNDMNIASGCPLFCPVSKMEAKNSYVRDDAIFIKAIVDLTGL

The assay covers variants of B1. The settings on record: with traf2_human TRAF2, Q12933.
As for C83R, the “effect of a mutation on the interaction” value is “disrupting interaction strength”.

(Values after IntAct's records for PubMed 25502805.)
